Measured values as given in patent EP4667468A1, “COMPOUND FOR INHIBITING NLRP3, PREPARATION METHOD, AND USE” (Shenzhen Zhongge Biological Technology Co., Ltd., priority 2023, dated 2024).

By UniProt entry, the sequences of proteins in these tests, tags left out. Residues count along the entry.
UniProt Q96P20, 134-1036 limits assumed: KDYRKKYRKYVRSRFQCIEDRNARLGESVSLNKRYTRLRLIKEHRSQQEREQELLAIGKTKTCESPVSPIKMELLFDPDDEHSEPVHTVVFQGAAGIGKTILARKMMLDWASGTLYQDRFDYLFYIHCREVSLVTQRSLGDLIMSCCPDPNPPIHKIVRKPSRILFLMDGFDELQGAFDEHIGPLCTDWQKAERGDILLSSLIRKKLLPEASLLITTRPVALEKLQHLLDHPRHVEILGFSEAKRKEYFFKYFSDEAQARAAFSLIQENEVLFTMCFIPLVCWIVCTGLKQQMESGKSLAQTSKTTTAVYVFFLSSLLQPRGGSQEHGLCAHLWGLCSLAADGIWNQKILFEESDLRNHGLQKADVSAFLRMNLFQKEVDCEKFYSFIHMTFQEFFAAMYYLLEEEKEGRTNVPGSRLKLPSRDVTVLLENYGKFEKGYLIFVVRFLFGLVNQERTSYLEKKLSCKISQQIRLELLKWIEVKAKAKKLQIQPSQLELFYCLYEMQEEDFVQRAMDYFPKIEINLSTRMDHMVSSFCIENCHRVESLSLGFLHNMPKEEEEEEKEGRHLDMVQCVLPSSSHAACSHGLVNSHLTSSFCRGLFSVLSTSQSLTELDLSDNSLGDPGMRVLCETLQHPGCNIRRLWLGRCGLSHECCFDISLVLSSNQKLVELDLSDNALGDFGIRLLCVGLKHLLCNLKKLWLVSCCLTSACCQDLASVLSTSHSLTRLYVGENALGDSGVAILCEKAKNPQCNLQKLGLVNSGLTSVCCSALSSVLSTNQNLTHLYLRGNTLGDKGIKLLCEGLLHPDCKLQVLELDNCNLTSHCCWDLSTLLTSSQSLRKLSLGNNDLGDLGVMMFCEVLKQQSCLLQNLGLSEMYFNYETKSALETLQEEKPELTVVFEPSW

Target: His6-Flag-TEV-NLRP3 (134-1036) (Homo sapiens, UniProt Q96P20)
Assay: NLRP3 binding assay (fluorescence polarization, competition with probe NP3-301)
Conditions: read-out: FP Binding Assay IC50; competition with NP3-301 (0.5 nM) for binding to NLRP3 protein (30 nM)
Procedure: This experiment uses fluorescence polarization technology to detect and evaluate the binding assay.
The fluorescent probe used in this assay is the compound NP3-301 in the Journal of Molecular Biology (2021) 433, 167309, which was synthesized with reference to this literature.
His6-Flag-TEV-NLRP3 (134-1036) protein (SEQ NO.1) was purchased from Kaihuiruizhi Biotech (Shanghai) Co., Ltd. (ChemPartner), and was customed for expression.
Prepare 1× assay buffer: 50 mM Hepes, pH 7.4, 150 mM NaCl, 2.5 mM MgCl2, 0.005% Tween-20, 1 mM TCEP, 100 µM ATP.
First, 2.5 µL of 4× compound solution was added to a black shallow 384-well plate (Greiner, 784076), the shallow well plate was sealed, and centrifuged at 1000 rpm for 1 min; then 2× NLPR3 protein solution (final concentration of 30 nM) was added, the shallow well plate was sealed, centrifuged at 1000 rpm for 1 min, and incubated at room temperature for 60 min. Finally, 2.5 µL of 4× NP3-301 (final concentration of 0.5 nM) was added, the shallow well plate was sealed, centrifuged at 1000 rpm for 1 min, and incubated at room temperature for 30 min. Envision was used to read the fluorescence polarization values of λex = 485 ± 20 nm and λem = 535 ± 25 nm. […]

Structure (SMILES)	IC50 [nM]
Cc1cc(C(F)(F)F)cc(O)c1-c1ccc2oc(NC[C@H]3COCCO3)nc2n1	< 100
Cc1cc(C(F)(F)F)cc(O)c1-c1ncc2cn(C3CCOCC3)nc2n1	100 to 500
